The assay addresses hTRPA1-S873V/T874L (Homo sapiens, UniProt O75762, S873V/T874L).

Chains of the proteins cited; added tags and fusions are not shown.
UniProt O75762, whole entry S873V/T874L: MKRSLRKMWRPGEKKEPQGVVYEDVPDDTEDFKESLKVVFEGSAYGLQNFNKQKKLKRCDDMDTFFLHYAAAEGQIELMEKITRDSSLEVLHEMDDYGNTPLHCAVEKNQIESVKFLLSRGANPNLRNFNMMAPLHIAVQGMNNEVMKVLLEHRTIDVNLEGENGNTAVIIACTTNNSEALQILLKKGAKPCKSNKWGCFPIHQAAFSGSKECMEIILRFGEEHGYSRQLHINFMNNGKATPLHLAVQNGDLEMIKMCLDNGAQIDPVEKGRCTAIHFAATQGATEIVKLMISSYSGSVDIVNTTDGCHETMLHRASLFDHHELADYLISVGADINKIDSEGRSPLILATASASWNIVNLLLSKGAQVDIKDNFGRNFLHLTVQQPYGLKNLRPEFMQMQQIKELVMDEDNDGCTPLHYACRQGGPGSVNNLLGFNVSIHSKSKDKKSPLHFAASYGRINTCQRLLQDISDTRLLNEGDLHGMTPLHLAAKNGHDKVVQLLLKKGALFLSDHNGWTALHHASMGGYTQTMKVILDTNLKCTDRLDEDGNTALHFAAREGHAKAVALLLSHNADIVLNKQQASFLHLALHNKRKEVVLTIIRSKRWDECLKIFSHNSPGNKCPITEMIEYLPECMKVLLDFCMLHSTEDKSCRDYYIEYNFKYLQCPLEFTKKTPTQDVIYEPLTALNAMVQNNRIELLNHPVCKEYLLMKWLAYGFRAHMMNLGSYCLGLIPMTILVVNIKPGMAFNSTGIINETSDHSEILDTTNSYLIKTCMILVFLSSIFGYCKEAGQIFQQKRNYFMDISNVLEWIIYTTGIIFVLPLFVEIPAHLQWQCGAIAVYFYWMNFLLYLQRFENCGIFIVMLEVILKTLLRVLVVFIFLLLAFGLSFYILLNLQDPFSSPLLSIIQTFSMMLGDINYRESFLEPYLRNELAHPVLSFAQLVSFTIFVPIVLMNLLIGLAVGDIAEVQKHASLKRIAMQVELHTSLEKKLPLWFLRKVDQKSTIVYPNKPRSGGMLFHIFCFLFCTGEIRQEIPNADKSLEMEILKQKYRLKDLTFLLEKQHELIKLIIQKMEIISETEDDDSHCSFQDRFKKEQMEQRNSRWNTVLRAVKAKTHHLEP

As to `CC(C)=CCC/C(C)=C/CC/C(C)=C/CSc1ccccc1C(=O)O` [FTS, Farnesyl thiosalicylic acid], the EC50 (read-out: hTRPA1-S873V/T874L EC50 (Activation)) worked out at 11.8 ± 8.3 µM. Consider `CC(=NO)/C(C)=C\c1ccc(Cl)cc1` [AP18, (Z)-4-(4-chlorophynyl)-3-methylbut-3-en-2-oxime], for which the “hTRPA1-S873V/T874L IC50 (Inhibition)” value is “No inhibition”.

Source of the values: publication PMC2678945 (The Journal of neuroscience : the official journal of the …, 2008).
